# miR-21 reporter – raises the signal of a miR-21 reporter | Potency, µM (highest dose often 38.3 µM), without a hit: at the top dose reporter change, positive = more light | HeLa miR-21 FLuc reporter, luciferase, 48 h | 340,000 tested, under 10 active; active = well fitted rising curve with a large enough effect; inconclusive = small, poorly fitted or top-dose-only effect; inactive = no such curve, though single readings can be large or run the other way;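 further: % of control where 0% means no effect; miR-21 action dims this reporter so a rising signal means less miR-21 action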
#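 Using DMEM plus 10% FBS, HeLa miR-21-FLuc cells are incubated with test compounds (final up to about 40uM) for 48 hours; firefly luciferase signal is then imaged following reagent-mediated lysis.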
# Mito fusion act – inhibitors of mitochondrial division or activators of mitochondrial fusion; S. cerevisiae fusion-defective mutant growth rescue, CellTiterGlo 48 h; Potency, µM (highest dose often 46.1 µM), for the others: at the top dose growth rescue (activation), hits mostly activators; 320,000 tested, 0.23% active; AID 485298; further: potency means the concentration at half of the fitted maximal effect; % of control where 0% means no effect; nearly all actives have a fitted effect of over 45% in size
#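 S. cerevisiae fusion-defective temperature-sensitive mutants (e.g. fzo1-1, mgm1-5) grown 48 h at 37C in YPEG (ethanol/glycerol non-fermentable) medium with 23 nl compound per well; growth rescue read as CellTiterGlo luminescence.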
# A549 viability – kills or reduces viability of A549 cells in Nrf2 counter-screen. A549 ARE-Fluc cells, CellTiter-Fluor viability, 18-24 h. Potency, µM (highest dose often 46 µM), for inactives: at the highest dose activity change, negative = cytotoxicity, most hits filed as inhibitors. 390,000 tested, 0.16% active. AID 504648; further: potency means the concentration at half of the fitted maximal effect; on the % scale 0 is the no-effect control and ±100 the full control effect
#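 A549 ARE-Fluc cells in 5% FBS OPTI-MEM, 5000 cells/well, rested 2 h then exposed to compounds in concentration-response for 18-24 h at 37 °C. Viability by CellTiter-Fluor fluorescence (Ex 405/Em 525) after 30 min; luciferase luminescence (BugLite, 15 min, RT) read afterwards.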
# Nrf2 ARE act – activates Nrf2 signaling; AREc32 ARE-luciferase reporter (MCF7-derived line), luminescence, 24 h; Potency, µM (titrated, usually from 46.1 µM), for the others: top-dose activation, hits mostly activators; 410,000 tested, 0.31% active; further: potency means the concentration at half of the fitted maximal effect; % of control where 0% means no effect; nearly all actives have a fitted effect of over 65% in size
#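 AREc32 cells carrying an ARE-driven firefly luciferase reporter were seeded at 1000 cells/well in OPTI-MEM with 5% FBS, then exposed to compound for 24 hr at 37 deg C. Luminescence was read with Steady-Glo after 30 min at RT.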
# Nrf2 block – inhibitors of Nrf2 signaling | A549 ARE-Fluc reporter, luciferase luminescence, 18-24 h | Potency, µM (series often up to 46 µM), without a hit: at the highest dose activity change, negative = inhibition, actives largely listed as inhibitors | 360,000 tested, 2.1% active | AID 504444; further: potency means the concentration at half of the fitted maximal effect; on the % scale 0 is the no-effect control and ±100 the full control effect; nearly all actives have a fitted effect of over 60% in size
#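 A549 ARE_Fluc cells, 5000/well, 5% FBS OPTI-MEM; compounds in dose-response, 18-24 h at 37 °C/5% CO2; CellTiter-Fluor viability read (Ex 405/Em 525), then BugLite luciferase luminescence = Nrf2 activity.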
# * hit, by the source's call; ? = inconclusive; / = no result given; [ ] = dose if it differs, or a comment. In the library only some 2.3% were active in any assay of this set; here they are far more common. Unless noted, the call rests on the fitted dose curve; in most records, active means well fitted curve in the direction sought with a large enough effect; inconclusive means small, poorly fitted or top-dose-only effect, or another doubt; inactive means no such curve, though single readings can be large; an effect the other way counts as inactive or inconclusive.
# Screens by letter: A = miR-21 reporter; B = Mito fusion act; C = A549 viability; D = Nrf2 ARE act; E = Nrf2 block
CC1(c2nnc(Cc3ccccc3)o2)CC(c2ccccc2)=NO1 (stereo unspecified)
  A: / | B: / | C: 6% | D: 0% | E: -2%
CCC1CCCCN1S(=O)(=O)c1ccc(C(=O)Nc2nnc(C3CC3)o2)cc1 (stereo unspecified)
  A: 27% | B: 6% | C: -4% | D: -1% | E: ?
CCC1CCCCN1S(=O)(=O)c1ccc(NC(=O)c2ccncc2)cc1 (stereo unspecified)
  A: 24% | B: 12% | C: -15% | D: -1% | E: 8.2µM*
CCC1CCCCN1S(=O)(=O)c1ccc(C(=O)Nc2nnc(-c3ccccc3Cl)o2)cc1 (stereo unspecified)
  A: -4% | B: 7% | C: ? | D: 0% | E: 5.2µM*
Cc1ccc(NC(=O)c2oc3ccc(S(=O)(=O)N(C)C4CCCCC4)cc3c2C)c(C)c1
  A: 21% | B: / | C: 17% | D: 0% | E: /
Cc1cc(-n2c(C)nc3ccccc3c2=O)ccc1NC(=O)c1cccc([N+](=O)[O-])c1C
  A: ? | B: / | C: 9% | D: 0% | E: /
O=C(CN1CC(=O)Oc2ccccc21)OCC(=O)c1ccc(F)cc1
  A: -1% | B: ? | C: ? | D: ? | E: -5%
O=C(CN1CC(=O)Oc2ccccc21)OCC(=O)c1ccc(Br)cc1
  A: / | B: / | C: ? | D: 13µM* | E: -23%
C=C1C(=O)[C@@]23[C@H](O)C[C@@H]4C(C)(C)CC[C@H](O)[C@]4(C)[C@@H]2C[C@H](O)[C@@H]1[C@H]3O
  A: ? | B: -1% | C: ? | D: -2% | E: 15µM*
C=C1C(=O)[C@@]23[C@H](O)C[C@@H]4C(C)(C)CC[C@H](O)[C@@]4(C)[C@@H]2CC[C@@H]1[C@H]3O
  A: 29% | B: 1% | C: ? | D: -3% | E: 18µM*
CSc1ccc(CNC(=O)CCc2c(C)nn(-c3ccc(N4CCCC4)nn3)c2C)cc1
  A: -6% | B: / | C: 5% | D: 1% | E: -17%
C[C@H]1C=C(C(=O)NCc2nc3ccccc3[nH]2)O[C@@H](OCCCCO)C1
  A: / | B: / | C: 4% | D: 0% | E: 0%
CC(C)(C)[C@H]1C=C(C(=O)NCc2nc3ccccc3[nH]2)O[C@@H](OCCCCO)C1
  A: 0% | B: 5.6µM* | C: 1% | D: 0% | E: 5%
CCn1c(-c2ccccc2Cl)nn(CC(=O)Nc2cc(Cl)ccc2Cl)c1=S
  A: 13% | B: 2% | C: -11% | D: 6% | E: 16µM*
Cc1cccc(Cn2c(-c3cccs3)nc3ccccc32)c1
  A: 11% | B: / | C: -7% | D: 1% | E: -3%

# One compound at a time, from the list above. Values in the order: miR-21 reporter	Mito fusion act	A549 viability	Nrf2 ARE act	Nrf2 block
# Cc1ccc(NC(=O)c2oc3ccc(S(=O)(=O)N(C)C4CCCCC4)cc3c2C)c(C)c1 in the list: 21%	/	17%	0%	/
# CCC1CCCCN1S(=O)(=O)c1ccc(NC(=O)c2ccncc2)cc1 (stereo unspecified) in the list: 24%	12%	-15%	-1%	8.2µM*
# Cc1cc(-n2c(C)nc3ccccc3c2=O)ccc1NC(=O)c1cccc([N+](=O)[O-])c1C in the list: ?	/	9%	0%	/
# C=C1C(=O)[C@@]23[C@H](O)C[C@@H]4C(C)(C)CC[C@H](O)[C@@]4(C)[C@@H]2CC[C@@H]1[C@H]3O in the list: 29%	1%	?	-3%	18µM*

# The list goes on:
# Screens by letter: A = miR-21 reporter; B = Mito fusion act; C = A549 viability; D = Nrf2 ARE act; E = Nrf2 block
Cc1ccc(C)c(Cn2c(-c3cccs3)nc3ccccc32)c1
  A: 21% | B: / | C: ? | D: 7% | E: 23µM*
COc1ccc(C(=O)N(Cc2cccs2)Cc2cccs2)c(O)c1
  A: / | B: / | C: 2% | D: / | E: 24%
O=C(Nc1ccccc1)c1ccc(S(=O)(=O)NCc2cccnc2)cc1
  A: 20% | B: 0% | C: 0% | D: 0% | E: 13µM*
O=C(Nc1ccc(S(=O)(=O)NCCc2ccccc2)cc1)c1ccncc1
  A: -5% | B: 0% | C: -11% | D: -1% | E: 21µM*
O=C(Nc1ccc(S(=O)(=O)NCCc2ccccc2)cc1)c1ccco1
  A: -4% | B: 2% | C: 6% | D: 5% | E: -17%
O=C(NCc1cccnc1)c1ccc(NC(=O)c2cccc([N+](=O)[O-])c2)cc1
  A: 23% | B: -2% | C: 4% | D: 1% | E: 4.6µM*
Cc1ccc(CCNC(=O)CCS(=O)(=O)c2cc3c(cc2Cl)NC(=O)CO3)cc1
  A: 2% | B: / | C: 6% | D: -2% | E: -9%
COc1ccc(C2c3[nH]c4ccc(OC)cc4c3CCN2C(=O)Nc2ccccc2)cc1 (stereo unspecified)
  A: ? | B: / | C: ? | D: 0% | E: 15µM*
O=C(Nc1cnc2sccn2c1=O)c1ccccc1Cl
  A: -18% | B: 5% | C: 10% | D: 11µM* | E: 3%
COc1cccc(N2CCN(C(=O)c3ccc4c(=O)n(CCc5ccccc5)c(=O)[nH]c4c3)CC2)c1
  A: ? | B: / | C: -10% | D: 0% | E: -15%[9.27 µM]
CCOc1ccc(C(c2c(O)cc(C)n(Cc3ccco3)c2=O)N2CCN(C)CC2)cc1 (stereo unspecified)
  A: -3% | B: / | C: -7% | D: -1% | E: /
O=C(Nc1ccc(-c2nnc3n2CCCCC3)cc1)c1cc2ccccc2o1
  A: -17% | B: -3% | C: -5% | D: 1% | E: -27%
Cc1c(C(=O)Nc2ccc(-c3nnc4n3CCCCC4)cc2)oc2c1ccc1ccccc12
  A: 17% | B: ? | C: ? | D: -3% | E: 9.2µM*
COc1ccccc1-c1nc(C#N)c(N2CCc3ccccc3C2)o1
  A: -16% | B: 18% | C: -2% | D: 1% | E: /
COc1ccc(-c2nc(C#N)c(N3CCc4ccccc4C3)o2)cc1OC
  A: -14% | B: 13% | C: -5% | D: 2% | E: 21µM*
CCOCCc1nn2c(=O)cc(COC(=O)c3ccccc3OC)nc2s1
  A: -7% | B: / | C: 1% | D: 3% | E: ?
COc1ccc(Cn2nnnc2CN2CCC(c3nc4ccccc4s3)CC2)cc1
  A: 6% | B: -4% | C: -3% | D: -1% | E: 23µM*
CC(=O)N1c2ccc(S(=O)(=O)NCCC(=O)Nc3ccc(Cl)cc3)cc2CC1C (stereo unspecified)
  A: / | B: / | C: / | D: 2% | E: /
CC(=O)N1c2ccc(S(=O)(=O)NCCC(=O)Nc3ccc(OC(F)(F)F)cc3)cc2CC1C (stereo unspecified)
  A: 14% | B: -11% | C: -7% | D: 2% | E: 18µM*
CC(=O)N1c2ccc(S(=O)(=O)NCCC(=O)NCCc3ccc(Cl)cc3)cc2CC1C (stereo unspecified)
  A: 19% | B: -1% | C: -8% | D: 0% | E: 21µM*
CC(=O)N1c2ccc(S(=O)(=O)NCCC(=O)NCCc3ccc(C)cc3)cc2CC1C (stereo unspecified)
  A: 16% | B: -15% | C: -8% | D: 0% | E: 16µM*
CC(=O)N1CCc2cc(S(=O)(=O)C(C)CC(=O)Nc3ccc(OC(F)(F)F)cc3)ccc21 (stereo unspecified)
  A: -10% | B: 6% | C: -8% | D: -1% | E: 12µM*
CCc1ccc(NCc2cc3ccc(OC)cc3n(CC(=O)Nc3ccc(C)c(Cl)c3)c2=O)cc1
  A: 3% | B: / | C: 5% | D: -1% | E: 29%
CCOC(=O)CSc1nc2cc(OC)c(OC)cc2cc1C#N
  A: / | B: / | C: -3% | D: / | E: 2%
CCOc1cc(C(=O)N(Cc2nc(-c3ccc(C)cc3)no2)C(C)C)cc(OCC)c1OCC
  A: 7% | B: / | C: -3% | D: -1% | E: ?
CCCCN1C(=O)CN(C2CCCCCC2)C(=O)C1c1ccc(OCC)c(OC)c1 (stereo unspecified)
  A: -2% | B: / | C: -3% | D: 0% | E: /
O=C(Nc1ccc(S(=O)(=O)Nc2ccccc2)cc1)c1ccc(CN2CCOCC2)cc1
  A: ? | B: 2% | C: -4% | D: 0% | E: 4.1µM*
CCOc1ccc(NC(=O)c2ccc(NC(=O)c3ccc(CN4CCOCC4)cc3)cc2)cc1
  A: -3% | B: -2% | C: 2% | D: -1% | E: -25%
CCC(C)Oc1ccc(C(=O)Nc2ccc(CN3CCOCC3)cc2)cc1 (stereo unspecified)
  A: 28% | B: 3% | C: -20% | D: 0% | E: 23µM*
CC(C)Oc1ccc(C(=O)Nc2nnc(SCC(=O)N3CCOCC3)s2)cc1
  A: 16% | B: -4% | C: -3% | D: -2% | E: 5.2µM*

# Bioassay records as filed in PubChem BioAssay.
